Tests used:
[1] = target: T1, holoenzyme containing the mutant caspase-9 (Homo sapiens, UniProt P55211, D315A/D330A/E306A); assay: XIAP inhibition of procaspase-3 processing by Apaf-1-caspase-9 holoenzyme; assay type: biochemical; details: increasing amounts of XIAP; Apaf-1 20 nM
T1 construct: His tag (purified on Talon resin); made in house; host or cells: bacteria (E. coli stated for the WT protein)
T1 sequence (P55211 1-416 E306A/D315A/D330A): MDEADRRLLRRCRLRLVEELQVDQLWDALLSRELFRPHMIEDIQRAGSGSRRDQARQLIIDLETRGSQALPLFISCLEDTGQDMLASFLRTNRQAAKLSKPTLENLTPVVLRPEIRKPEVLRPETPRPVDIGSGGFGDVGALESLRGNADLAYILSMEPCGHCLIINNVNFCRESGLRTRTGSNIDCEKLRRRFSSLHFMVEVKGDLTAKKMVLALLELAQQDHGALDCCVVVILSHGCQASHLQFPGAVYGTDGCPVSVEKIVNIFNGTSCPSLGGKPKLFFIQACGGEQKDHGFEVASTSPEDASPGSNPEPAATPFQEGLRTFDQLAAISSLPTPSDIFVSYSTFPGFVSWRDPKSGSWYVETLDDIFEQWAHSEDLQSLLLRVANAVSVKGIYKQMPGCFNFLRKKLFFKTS
T1 sequence (O14727 1-1248 partner): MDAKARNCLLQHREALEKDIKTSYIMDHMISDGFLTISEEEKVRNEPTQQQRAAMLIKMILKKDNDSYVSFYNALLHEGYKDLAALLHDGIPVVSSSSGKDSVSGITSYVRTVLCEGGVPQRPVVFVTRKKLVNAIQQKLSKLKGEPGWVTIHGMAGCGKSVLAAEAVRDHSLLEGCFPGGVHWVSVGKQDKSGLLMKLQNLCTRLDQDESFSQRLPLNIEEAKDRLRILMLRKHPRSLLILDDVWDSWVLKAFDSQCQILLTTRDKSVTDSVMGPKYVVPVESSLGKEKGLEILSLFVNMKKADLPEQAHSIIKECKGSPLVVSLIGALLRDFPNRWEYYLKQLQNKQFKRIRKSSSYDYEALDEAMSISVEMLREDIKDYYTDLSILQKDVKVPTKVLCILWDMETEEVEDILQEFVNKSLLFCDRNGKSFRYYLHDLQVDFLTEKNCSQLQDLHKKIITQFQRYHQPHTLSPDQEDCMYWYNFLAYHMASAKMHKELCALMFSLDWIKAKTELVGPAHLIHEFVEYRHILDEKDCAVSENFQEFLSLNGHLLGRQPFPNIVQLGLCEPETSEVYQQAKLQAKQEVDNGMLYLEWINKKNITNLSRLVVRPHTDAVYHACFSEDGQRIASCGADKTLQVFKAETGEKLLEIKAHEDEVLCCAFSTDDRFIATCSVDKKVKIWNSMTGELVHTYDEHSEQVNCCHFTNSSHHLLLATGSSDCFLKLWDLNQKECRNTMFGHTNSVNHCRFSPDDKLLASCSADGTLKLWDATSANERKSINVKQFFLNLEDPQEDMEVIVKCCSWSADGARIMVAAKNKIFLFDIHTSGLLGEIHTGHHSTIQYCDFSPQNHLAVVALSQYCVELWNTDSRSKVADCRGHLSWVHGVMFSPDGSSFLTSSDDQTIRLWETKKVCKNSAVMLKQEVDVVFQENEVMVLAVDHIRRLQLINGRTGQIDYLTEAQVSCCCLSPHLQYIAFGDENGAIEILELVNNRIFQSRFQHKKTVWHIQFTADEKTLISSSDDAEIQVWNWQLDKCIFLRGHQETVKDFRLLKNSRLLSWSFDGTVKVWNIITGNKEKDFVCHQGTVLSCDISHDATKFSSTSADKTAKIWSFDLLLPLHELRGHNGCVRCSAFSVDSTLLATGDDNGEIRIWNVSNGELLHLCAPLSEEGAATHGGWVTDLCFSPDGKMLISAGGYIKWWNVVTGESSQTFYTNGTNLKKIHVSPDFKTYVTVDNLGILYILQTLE
T1 sequence (P99999 2-105 partner limits assumed): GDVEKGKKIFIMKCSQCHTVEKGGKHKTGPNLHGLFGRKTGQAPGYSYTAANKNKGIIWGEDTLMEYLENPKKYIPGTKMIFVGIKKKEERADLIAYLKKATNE
Method: (§1) Given that both processed and unprocessed caspase-9-Apaf-1 holoenzyme complexes are catalytically active, it was determined whether XIAP could inhibit them equally.

[2] = target: T2, holoenzyme containing the WT caspase-9 (Homo sapiens, UniProt P55211); assay: as above; assay type: biochemical; details: increasing amounts of XIAP; Apaf-1 20 nM
T2 construct: 6-Histidine (C); made in house; host or cells: Escherichia coli BL21 (DE3)
Method: as §1

Substance: XIAP: X-linked inhibitor of apoptosis protein
- inhibition of processing of procaspase-3 by holoenzyme containing mutant caspase-9 [1]: did not significantly inhibit
- inhibition of processing of procaspase-3 by holoenzyme containing WT caspase-9 [2]: completely inhibited

Reference: patent US20020160975A1, “Conserved XIAP-interaction motif in caspase-9 and Smac/DIABLO for mediating apoptosis” (Thomas Jefferson University, priority 2001, published 2002)
